Laboratory results from patent US20050233470A1, “Methods and compound mixtures for determining protein activity using nmr spectroscopy” (priority 2002, published 2005).

Conditions: rabbit, in vivo

Expected increase of plasma levels of CBZ with diltiazem: ~30%
Substance: carbamazepine [CBZ]
